Laboratory results from patent US12577702B2, “Oligonucleotide encoded chemical libraries, related systems, devices, and methods for detecting, analyzing, quantifying, and testing biologics/genetics” (Plexium, Inc., priority 2020, dated 2026).

Chains of the proteins cited; added tags and fusions are not shown. Residues count along the entry.
UniProt P07339, 65-412: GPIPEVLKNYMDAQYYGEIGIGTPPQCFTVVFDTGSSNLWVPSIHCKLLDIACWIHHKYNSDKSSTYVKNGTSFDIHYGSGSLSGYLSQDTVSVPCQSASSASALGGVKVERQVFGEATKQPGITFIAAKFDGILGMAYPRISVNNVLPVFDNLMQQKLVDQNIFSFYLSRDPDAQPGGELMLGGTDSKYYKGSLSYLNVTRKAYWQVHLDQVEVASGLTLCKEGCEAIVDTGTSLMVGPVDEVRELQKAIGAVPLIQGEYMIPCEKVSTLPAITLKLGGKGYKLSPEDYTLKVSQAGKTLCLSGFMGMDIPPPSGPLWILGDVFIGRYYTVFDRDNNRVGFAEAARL

Target: Cathepsin-D protease (Homo sapiens, UniProt P07339)
Assay: Protease inhibition assay in picowells with compound photo-released from beads
Type: biochemical
Conditions: compound released from 10 μm TentaGel bead by UV (365 nm, 77 J/cm^2) to approximately 13 μM; incubated 30 min, 37° C.; λex=480 nm, λem=525 nm

Structure (SMILES): CC(C)CC(=O)N[C@H](C(=O)N[C@H](C(=O)N[C@@H](CC(C)C)[C@@H](O)CC(=O)N[C@@H](C)C(=O)N[C@@H](CC(C)C)[C@@H](O)CC(=O)O)C(C)C)C(C)C [positive control beads, Pepstatin-A]
- Cathepsin-D inhibition (fluorescence of Peptide Q-Fluor substrate in well): strong inhibition
